pEC50, pIC50: −log10 of the molar value.
How the values were obtained:
progesterone receptor = progesterone receptor (Homo sapiens (Human), UniProt P06401); test: Progesterone receptor binding test; settings: ratio of competition factors CF(PR) and CF(MR)
Experimental: 1. Progesterone Receptor Binding Test:
Using cytosol from progesterone receptor-expressing insect cells (Hi5), competitive binding to the progesterone receptor was determined from the ability to displace ^3H-progesterone as reference substance from the receptor.

Sequences of proteins named here, by UniProt entry; tags and fusion partners are left off.
UniProt P06401, whole entry, species assumed: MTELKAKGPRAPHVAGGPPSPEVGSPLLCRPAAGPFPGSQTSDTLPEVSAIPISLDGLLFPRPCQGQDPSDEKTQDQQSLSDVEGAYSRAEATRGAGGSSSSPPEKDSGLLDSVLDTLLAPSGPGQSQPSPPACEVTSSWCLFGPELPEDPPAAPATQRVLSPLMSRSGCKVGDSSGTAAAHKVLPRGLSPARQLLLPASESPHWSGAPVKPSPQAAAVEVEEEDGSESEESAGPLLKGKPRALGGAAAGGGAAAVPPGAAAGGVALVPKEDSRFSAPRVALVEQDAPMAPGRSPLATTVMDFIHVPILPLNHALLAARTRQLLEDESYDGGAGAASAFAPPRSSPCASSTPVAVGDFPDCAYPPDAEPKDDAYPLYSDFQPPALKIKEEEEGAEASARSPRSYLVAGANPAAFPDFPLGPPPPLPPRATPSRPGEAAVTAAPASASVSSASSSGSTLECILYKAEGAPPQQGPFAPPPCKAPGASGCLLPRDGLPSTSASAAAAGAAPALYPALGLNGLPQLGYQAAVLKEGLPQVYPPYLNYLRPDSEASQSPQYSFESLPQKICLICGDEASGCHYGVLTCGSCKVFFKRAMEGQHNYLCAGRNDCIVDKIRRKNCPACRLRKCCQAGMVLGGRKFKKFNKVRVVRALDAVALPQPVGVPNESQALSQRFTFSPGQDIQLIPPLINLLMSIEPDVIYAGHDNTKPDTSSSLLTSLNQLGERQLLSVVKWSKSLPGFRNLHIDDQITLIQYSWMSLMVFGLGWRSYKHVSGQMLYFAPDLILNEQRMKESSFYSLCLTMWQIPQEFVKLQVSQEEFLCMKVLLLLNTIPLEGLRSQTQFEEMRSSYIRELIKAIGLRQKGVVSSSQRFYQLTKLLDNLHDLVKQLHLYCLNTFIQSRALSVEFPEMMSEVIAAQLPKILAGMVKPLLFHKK
UniProt P10275, whole entry, species assumed: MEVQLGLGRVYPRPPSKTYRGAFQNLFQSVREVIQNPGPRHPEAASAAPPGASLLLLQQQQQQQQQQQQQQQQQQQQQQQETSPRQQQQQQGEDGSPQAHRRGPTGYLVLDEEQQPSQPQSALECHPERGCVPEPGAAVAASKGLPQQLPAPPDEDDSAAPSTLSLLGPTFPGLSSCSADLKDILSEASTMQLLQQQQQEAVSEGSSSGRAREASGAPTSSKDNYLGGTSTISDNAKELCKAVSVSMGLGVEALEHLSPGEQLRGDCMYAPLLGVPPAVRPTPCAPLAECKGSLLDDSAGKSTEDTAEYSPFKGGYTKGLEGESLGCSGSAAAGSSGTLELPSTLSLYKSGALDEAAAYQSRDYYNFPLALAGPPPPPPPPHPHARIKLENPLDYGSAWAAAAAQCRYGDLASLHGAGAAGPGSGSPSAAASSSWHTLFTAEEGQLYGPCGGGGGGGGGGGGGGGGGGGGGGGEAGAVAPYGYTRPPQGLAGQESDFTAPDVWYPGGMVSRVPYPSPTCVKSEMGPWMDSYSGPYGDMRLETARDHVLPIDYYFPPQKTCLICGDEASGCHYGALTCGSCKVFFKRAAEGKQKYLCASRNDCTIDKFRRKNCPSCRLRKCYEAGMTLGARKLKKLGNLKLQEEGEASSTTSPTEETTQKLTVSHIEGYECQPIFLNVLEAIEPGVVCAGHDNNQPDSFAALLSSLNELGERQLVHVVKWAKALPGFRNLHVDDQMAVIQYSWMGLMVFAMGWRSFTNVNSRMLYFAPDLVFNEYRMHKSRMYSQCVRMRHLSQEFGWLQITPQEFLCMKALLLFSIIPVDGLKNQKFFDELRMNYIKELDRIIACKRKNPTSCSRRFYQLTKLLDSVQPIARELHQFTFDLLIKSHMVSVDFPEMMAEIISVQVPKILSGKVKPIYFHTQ

androgen receptor [1] = molecular target: T1, androgen receptor (Homo sapiens (Human), UniProt P10275); test: Androgenic/antiandrogenic action by transactivation test (PC3 reporter cells); assay type: cell-based; settings: for pIC50: 0.05 nM R1881, read-out: Androgen receptor Antagonism IC50; for pEC50: read-out: Androgen receptor Agonism EC50
Experimental: 6. Determination of Androgenic/Antiandrogenic Action by Means of Transactivation Tests:
The androgenic/antiandrogenic action of the test substances was determined as for the transactivation tests described above.
The following modifications were made: In this case reporter cell lines were used (PC3 cells) that express the androgen receptor, and a reporter construct that contains luciferase under the control of a steroid hormone-responsive promoter.
For determination of the antiandrogenic efficacy, 0.05 nM R1881 was added to the cells, in order to achieve almost maximum stimulation of the reporter gene.

androgen receptor [2] = molecular target: T1, androgen receptor; test: Androgen receptor binding test; settings: reference 3H-testosterone, Hi5 cytosol; for pIC50: read-out: Androgen receptor IC50

Row | Structure (SMILES) | CF PR/CF MR (progesterone receptor) | pIC50 (androgen receptor [1]) | pEC50 (androgen receptor [1]) | pIC50 (androgen receptor [2]) | Androgen receptor Competition factor (androgen receptor [2])
1 | CC[C@]12CC[C@H]3[C@@H]([C@H](C4CC4)CC4=CC(=O)CC[C@@H]43)[C@@H]1CC[C@@]21C=CCO1 [Example 12, 7α-Cyclopropyl-18-methyl-17α-(1′-propenyl)-17β-3′-oxidoestra-4-en-3-one] | 4.26 | 6.00 | 7.80 | 6.72 | 6.0
2 | C[C@]12CC[C@H]3[C@@H](C=CC4=CC(=O)CC[C@@H]43)[C@@H]1CC[C@@]21C=CCO1 (stereo in doubt) [Example 2, 17α-(1′-Propenyl)-17β-3′-oxidoestra-4,6-dien-3-one] | 0.26 | 6.89 | 6.96 | 6.18 | 28.7
3 | C[C@@H]1CC2=CC(=O)CC[C@@H]2[C@H]2CC[C@@]3(C)[C@@H](CC[C@@]34C=CCO4)[C@@H]21 [Example 3, 7α-Methyl-17α-(1′-propenyl)-17β-3′-oxidoestra-4-en-3-one] | 0.75 | 6.00 | 8.64 | 7.35 | 2.0
4 | C[C@]12CC[C@H]3[C@@H](CCC4=CC(=O)CC[C@@H]43)[C@@H]1CC1(CC1)[C@@]21C=CCO1 (stereo in doubt) [Example 6, 16,16-Ethylene-17α-(1′-propenyl)-17β-3′-oxidoestra-4-en-3-one] | 0.15 | 7.96 | 8.17 | 6.85 | 15.7
5 | C[C@]12CC[C@H]3[C@@H](CCC4=CC(=O)CC[C@@H]43)[C@@H]1CC[C@@]21C=CCO1 (stereo in doubt) [Example 1, 17α-(1′-Propenyl)-17β-3′-oxidoestra-4-en-3-one] | 0.18 | 7.59 | 8.32 | 7.57 | 3.3
6 | CC[C@]12CC[C@H]3[C@@H](C=CC4=CC(=O)CC[C@@H]43)[C@@H]1CC[C@@]21C=CCO1 (stereo in doubt) [Example 8, 18-Methyl-17α-(1′-propenyl)-17β-3′-oxidoestra-4,6-dien-3-one] | 1.48 | 6.00 | 7.26 | 5.92 | 47.9

Reference: patent US9034856B2, “17-(1′propenyl)-17-3′-oxidoestra-4-en-3-one derivative, use thereof, and medicament containing said derivative” (Bayer Intellectual Property GmbH, priority 2007, dated 2015)
